Assay results taken from patent US12714711B2, “Salts of neuroceuticals and uses thereof” (priority 2020, dated 2026).

Experiments:
[1] = GTT, acute oral, risperidone 12 mg/kg
[2] = rat, in vivo, po, 83 mg/kg
Protocol: All animals used in this study were adult rats (at least 2.5 months of age).
Male Sprague-Dawley rats having a bodyweight between 250-300 g were randomly assigned to two groups. […] The chemicals were suspended in sesame oil and administrated by single oral gavage at 2 ml/kg. All rats were fasted overnight with free access to water before oral administration of the testing compositions. On the day of dosing, the blood samples were collected at 0 min (prior to dosing), and 0.25, 0.5, 1, 2, 4, 6, 8, and 24 hr post-dosing.
Blood samples were collected from rat jugular veins and transferred into tubes coated with sodium heparin. To obtain plasma, the blood samples were centrifuged at 2,500×g for 15 min at 4° C. and the supernatants were collected and kept frozen in a freezer at −80° C., until they were analyzed.
The plasma concentration of donepezil was determined by LC/MS. The chromatographic separation was carried out on a 5 μm EVO C8 100 Å LC column (100×4.6 mm, Kinetex®). The mobile phase was 0.1% formic acid in water and acetonitrile:methanol=8:2 set as gradient. Flow rate used was 0.3 mL/min. Column temperature was maintained at 40° C. and the injection volume was 30 μL.
The pharmacokinetic parameters were calculated using non-compartmental analysis (NCA) with WinNonlin to assess the systemic exposure of donepezil in rats.

Row | SMILES | Blood glucose level compared to vehicle after 120 min [1] | Cmax [2] [ng/mL]
1 | Cc1nc2n(c(=O)c1CCN1CCC(c3noc4cc(F)ccc34)CC1)CCCC2.O=C(O)c1cccnc1 [risperidone:nicotinic acid 1:1 salt, resperidone:nicotinic acid 1:1 salt] | 1.19 | –
2 | CN1CCN(C2=Nc3cc(Cl)ccc3Nc3ccccc32)CC1.O=C(O)c1cccnc1 [clozapine:nicotinic acid 1:1 salt] | – | 316
